Laboratory results from the RepoRT retention time repository (doi:10.1016/j.scitotenv.2015.08.078).

Experiment: RP, Waters ACQUITY UPLC BEH C18, 100 × 2.1 mm, 1.7 µm, 0.3 mL/min, estimated dead time 0.73 min; A: water + 0.1% formic acid, pH 3; B: methanol + 0.1% formic acid, pH 3; gradient (min/%B) 0/10 14/90 16/90 18/10
Conditions: stereoisomer not certain

## CCOP(=S)(OCC)Oc1ncn(-c2ccccc2)n1 [Triazophos]
  LC retention time: 10.7 min
